Laboratory results taken from ChEMBL document CHEMBL1240343, “Transition state analogs of 5'-methylthioadenosine nucleosidase disrupt quorum sensing” (Nat Chem Biol, 2009).

Tests used:
[1] = target: T1, 5'-methylthioadenosine/S-adenosylhomocysteine nucleosidase (Vibrio cholerae serotype O1 (strain ATCC 39315 / El Tor Inaba N16961), UniProt Q9KPI8)
T1 sequence (Q9KPI8 whole entry): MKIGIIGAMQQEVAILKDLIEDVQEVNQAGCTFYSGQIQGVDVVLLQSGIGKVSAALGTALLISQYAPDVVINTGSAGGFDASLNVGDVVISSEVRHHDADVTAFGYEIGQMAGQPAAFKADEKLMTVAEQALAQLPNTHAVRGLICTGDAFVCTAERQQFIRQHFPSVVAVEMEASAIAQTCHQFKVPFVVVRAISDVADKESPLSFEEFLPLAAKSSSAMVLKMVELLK

[2] = target: T1, 5'-methylthioadenosine/S-adenosylhomocysteine nucleosidase; experiment: cell-based
[3] = target: T1, 5'-methylthioadenosine/S-adenosylhomocysteine nucleosidase; remark: listed apart in the source
[4] = target: T1, 5'-methylthioadenosine/S-adenosylhomocysteine nucleosidase; remark: listed apart in the source

CSC[C@H]1CN(Cc2c[nH]c3c(N)ncnc23)C[C@@H]1O was tested, and the IC50 [1] was 10.5 nM, the IC50 [2] was 27 nM and the Ki [3] was 0.073 nM. It also gave an IC50 [4] of 10.5 nM.
